Laboratory results as given in patent publication US8546386B2, “Corrosion and microbial control in hydrocarbonaceous compositions” (Dow Global Technologies LLC, priority 2008, dated 2013).

Test system: Hormoconis resinae ATCC#20495
Assay: Microbial testing in biodiesel fuel, plate count
Format: cell-based
Settings: no biocide

Question: For `OCCN(CCO)CCO`, which “Mold (H. resinae) count” value (additive 500 ppm, Week 4) is on record?
Answer: 1.60E+03 Mold/ml

Question: What about the “Mold (H. resinae) count” value (additive 1500 ppm, Week 1) of the same compound?
Answer: <1.0E2 Mold/ml

Only a part of the results on these compounds is given; other tests are left out.
